Values quoted from earlier work in EP0390112B1, “Selective adenosine receptor agents” (MERRELL PHARMACEUTICALS INC., priority 1989, dated 1990).

Test system: adenosine receptors
Conditions: in vivo; cited from earlier work

## CCCn1c(=O)c2[nH]c(-c3ccc(OCC(=O)NCCN)cc3)nc2n(CCC)c1=O [XAC, amino congener of 8-phenyl-1,3-dipropyl-xanthine]
  antagonism of the effects of adenosine analogs on heart rate versus blood pressure: much more potent in antagonizing the effects of adenosine analogs on heart rate than on blood pressure
